The test concerns the target 26S proteasome purified from rabbit muscle (rabbit). Kind of test: pull-down; competition: binding of 26S to resin-bound polyUb-E6AP at 4°C in the presence of increasing concentrations (up to 300 nM) of K48- or K11-Ub4; binding without Ub tetramers taken as 100%; bound 26S by LLVY-AMC cleavage; constant called approximate.

As for “K48-linked tetraubiquitin (K48-Ub4) (from UniProt P0CG48 1-76)”, the percent decrease of polyUb-E6AP binding to proteasomes at 300 nM was determined as 60%.
